Test results as given in publication PMC11125197, “Evaluation of Drug Blood-Brain-Barrier Permeability Using a Microfluidic Chip” (Pharmaceutics, 2024).

Test system: human BBB-on-a-chip (hBMEC, HBVP, NHA)

CC[C@]1(O)C[C@H]2CN(CCc3c([nH]c4ccccc34)[C@@](C(=O)OC)(c3cc4c(cc3OC)N(C=O)[C@H]3[C@@](O)(C(=O)OC)[C@H](OC(C)=O)[C@]5(CC)C=CCN6CC[C@]43[C@@H]65)C2)C1 [Vincristine, vincristine]
Css,brain (steady state concentration of brain channel): 51.41 ng/mL
